The record followed here is US20070059799A1 (priority 1999, published 2007).

The assay concerns A3-supertype alleles. Briefly: A3-supertype cross-reactive binding (A*03, A*11, A*3101, A*3301, A*6801). On the set-up: species or system human. The conditions noted are these: number of A3-supertype alleles bound; 3 or more = degenerate.
Regarding `C[C@H](N)C(=O)N[C@@H](Cc1ccccc1)C(=O)N[C@H](C(=O)N[C@@H](Cc1ccccc1)C(=O)N[C@@H](CO)C(=O)N1CCC[C@H]1C(=O)N[C@H](C(=O)N[C@@H](Cc1ccc(O)cc1)C(=O)N[C@@H](CCCCN)C(=O)O)[C@@H](C)O)[C@@H](C)O` [20.0130], the Alleles bound was determined as 3.

Turning to `CC(C)[C@H](NC(=O)[C@@H](NC(=O)[C@@H](N)CO)C(C)C)C(=O)N[C@@H](CCCNC(=N)N)C(=O)N[C@@H](CCCNC(=N)N)C(=O)N[C@@H](C)C(=O)N[C@@H](Cc1ccccc1)C(=O)N1CCC[C@H]1C(=O)N[C@@H](Cc1c[nH]cn1)C(=O)O` [20.0131], the Alleles bound was 3.

With `CC[C@H](C)[C@H](NC(=O)CNC(=O)[C@H](C)NC(=O)[C@H](CCCCN)NC(=O)[C@H](Cc1c[nH]c2ccccc12)NC(=O)[C@H](CC(C)C)NC(=O)[C@@H](N)[C@@H](C)O)C(=O)N[C@@H](CC(C)C)C(=O)N[C@@H](Cc1ccc(O)cc1)C(=O)O` [1099.03], the Alleles bound is recorded as 1.

Consider `CC[C@H](C)[C@H](N)C(=O)N[C@@H](CC(C)C)C(=O)N[C@@H](CCCNC(=N)N)C(=O)NCC(=O)N[C@H](C(=O)N[C@@H](CO)C(=O)N[C@@H](Cc1ccccc1)C(=O)N[C@H](C(=O)N[C@@H](Cc1ccc(O)cc1)C(=O)O)C(C)C)[C@@H](C)O` [Peptide 1.0205], for which the Alleles bound is 1.

`CC(C)C[C@H](NC(=O)[C@H](CC(=O)O)NC(=O)[C@@H](NC(=O)[C@@H](N)[C@@H](C)O)[C@@H](C)O)C(=O)N[C@@H](CCC(=O)O)C(=O)N[C@@H](C)C(=O)N[C@@H](Cc1ccc(O)cc1)C(=O)N[C@@H](Cc1ccccc1)C(=O)N[C@@H](CCCCN)C(=O)O` [Peptide 1.0215.] registered an Alleles bound of 2.

`CC[C@H](C)[C@H](NC(=O)CNC(=O)[C@H](CC(C)C)NC(=O)[C@@H](N)CO)C(=O)N[C@@H](Cc1c[nH]cn1)C(=O)N[C@@H](CC(C)C)C(=O)N[C@@H](CC(N)=O)C(=O)N1CCC[C@H]1C(=O)N[C@@H](CC(N)=O)C(=O)N[C@@H](CCCCN)C(=O)O` [Peptide 1.0562] came in with an Alleles bound of 2.

Turning to `CC(C)C[C@H](NC(=O)[C@H](CC(=O)O)NC(=O)[C@@H](NC(=O)[C@@H](NC(=O)[C@@H](N)CO)[C@@H](C)O)[C@@H](C)O)C(=O)N[C@@H](CCC(=O)O)C(=O)N[C@@H](C)C(=O)N[C@@H](Cc1ccc(O)cc1)C(=O)N[C@@H](Cc1ccccc1)C(=O)N[C@@H](CCCCN)C(=O)O` [Peptide 1.0584], the Alleles bound was 1.

`CC(C)C[C@H](NC(=O)[C@@H](NC(=O)[C@H](Cc1ccccc1)NC(=O)[C@@H](NC(=O)[C@@H](N)CCCCN)C(C)C)C(C)C)C(=O)NCC(=O)NCC(=O)N[C@@H](CS)C(=O)N[C@@H](CCCNC(=N)N)C(=O)O` [Peptide 1.0993] displayed an Alleles bound of 4.

Regarding `C[C@@H](O)[C@H](NC(=O)[C@@H](N)Cc1ccccc1)C(=O)N[C@@H](Cc1ccccc1)C(=O)N[C@@H](CO)C(=O)N1CCC[C@H]1C(=O)N[C@H](C(=O)N[C@@H](Cc1ccc(O)cc1)C(=O)N[C@@H](CCCCN)C(=O)O)[C@@H](C)O` [Peptide 26.0008], the Alleles bound was 3.

The compound `CC[C@H](C)[C@H](NC(=O)[C@H](Cc1c[nH]c2ccccc12)NC(=O)[C@@H](NC(=O)CNC(=O)[C@H](Cc1ccccc1)NC(=O)[C@H](CO)NC(=O)[C@@H](N)C(C)C)C(C)C)C(=O)N[C@@H](CCCNC(=N)N)C(=O)O` [Peptide 26.0023] returned an Alleles bound of 3.

In turn, `CC[C@H](C)[C@H](NC(=O)[C@H](CO)NC(=O)[C@@H](N)C(C)C)C(=O)N1CCC[C@H]1C(=O)N[C@@H](Cc1c[nH]c2ccccc12)C(=O)N[C@H](C(=O)N[C@@H](Cc1c[nH]cn1)C(=O)N[C@@H](CCCCN)C(=O)O)[C@@H](C)O` [Peptide 26.0024] returned an Alleles bound of 1.

`CC(C)C[C@H](NC(=O)[C@H](C)NC(=O)[C@@H](N)CS)C(=O)N[C@@H](CCCNC(=N)N)C(=O)N[C@@H](Cc1ccccc1)C(=O)N[C@H](C(=O)N[C@@H](CO)C(=O)N[C@@H](C)C(=O)N[C@@H](CCCNC(=N)N)C(=O)O)[C@@H](C)O` [Peptide 26.0149] returned an Alleles bound of 4.

Consider `CC(C)C[C@H](NC(=O)[C@H](C)NC(=O)[C@H](CS)NC(=O)[C@@H]1CCCN1C(=O)CNC(=O)[C@H](C)NC(=O)[C@H](CO)NC(=O)[C@@H](N)CO)C(=O)N[C@@H](CCCNC(=N)N)C(=O)O` [Peptide 26.0153], for which the Alleles bound is recorded as 4.

`CC[C@H](C)[C@H](NC(=O)[C@H](Cc1c[nH]c2ccccc12)NC(=O)[C@@H](NC(=O)CN)C(C)C)C(=O)N[C@@H](CCCNC(=N)N)C(=O)N[C@H](C(=O)N1CCC[C@H]1C(=O)N1CCC[C@H]1C(=O)N[C@@H](C)C(=O)N[C@@H](Cc1ccc(O)cc1)C(=O)N[C@@H](CCCNC(=N)N)C(=O)O)[C@@H](C)O` [Peptide 26.0535] showed an Alleles bound of 5.

`CC(C)C[C@H](NC(=O)[C@@H](N)CCCNC(=N)N)C(=O)N[C@H](C(=O)N[C@H](C(=O)N[C@@H](CC(=O)O)C(=O)N[C@@H](Cc1ccccc1)C(=O)N[C@@H](CO)C(=O)N[C@@H](CCC(N)=O)C(=O)N[C@@H](Cc1ccccc1)C(=O)N[C@@H](CO)C(=O)N[C@@H](CCCNC(=N)N)C(=O)O)C(C)C)C(C)C` [Peptide 26.0539]: the Alleles bound was 5.

For the compound `CC(C)C[C@H](NC(=O)[C@@H](N)[C@@H](C)O)C(=O)N1CCC[C@H]1C(=O)N[C@@H](CCC(=O)O)C(=O)N[C@H](C(=O)N[C@H](C(=O)N[C@H](C(=O)N[C@H](C(=O)N[C@@H](CCCNC(=N)N)C(=O)N[C@@H](CCCNC(=N)N)C(=O)N[C@@H](CCCNC(=N)N)C(=O)O)C(C)C)C(C)C)[C@@H](C)O)[C@@H](C)O` [Peptide 26.0545], the Alleles bound is on record as 3.

Consider `CC[C@H](C)[C@H](NC(=O)[C@@H]1CCCN1C(=O)[C@H](CC(C)C)NC(=O)[C@@H](N)CC(C)C)C(=O)N[C@@H](Cc1ccccc1)C(=O)N[C@@H](Cc1ccccc1)C(=O)N[C@@H](CS)C(=O)N[C@@H](CC(C)C)C(=O)N[C@@H](Cc1c[nH]c2ccccc12)C(=O)N[C@H](C(=O)N[C@@H](Cc1ccc(O)cc1)C(=O)O)C(C)C` [Peptide 26.0549], for which the Alleles bound came out at 2.

As for `CC(C)C[C@H](NC(=O)[C@H](CS)NC(=O)[C@H](Cc1c[nH]cn1)NC(=O)[C@@H]1CCCN1C(=O)[C@H](Cc1ccccc1)NC(=O)[C@H](C)NC(=O)[C@@H](N)CCCNC(=N)N)C(=O)N[C@@H](C)C(=O)N[C@@H](Cc1ccccc1)C(=O)N[C@@H](CO)C(=O)N[C@@H](Cc1ccc(O)cc1)C(=O)O` [Peptide 26.0550], the Alleles bound is listed as 2.

As to `CC(C)[C@H](N)C(=O)N[C@H](C(=O)N[C@@H](CC(=O)O)C(=O)N[C@@H](Cc1ccccc1)C(=O)N[C@@H](CO)C(=O)N[C@@H](CCC(N)=O)C(=O)N[C@@H](Cc1ccccc1)C(=O)N[C@@H](CO)C(=O)N[C@@H](CCCNC(=N)N)C(=O)O)C(C)C` [Peptide 1069.19], the Alleles bound amounted to 2.

`CC(C)C[C@H](NC(=O)[C@@H](NC(=O)[C@@H](N)CO)[C@@H](C)O)C(=O)N1CCC[C@H]1C(=O)N[C@@H](CCC(=O)O)C(=O)N[C@H](C(=O)N[C@H](C(=O)N[C@H](C(=O)N[C@H](C(=O)N[C@@H](CCCNC(=N)N)C(=O)O)C(C)C)C(C)C)[C@@H](C)O)[C@@H](C)O` [Peptide 1069.21] registered an Alleles bound of 2.
